Biological target: Caspase 3 (Homo sapiens, UniProt P42574)
Type: biochemical
Details: read-out: Compound IC50

By UniProt entry, the sequences of proteins in these tests, tags left out. Residues count along the entry.
UniProt P42574, 29-277 limits assumed: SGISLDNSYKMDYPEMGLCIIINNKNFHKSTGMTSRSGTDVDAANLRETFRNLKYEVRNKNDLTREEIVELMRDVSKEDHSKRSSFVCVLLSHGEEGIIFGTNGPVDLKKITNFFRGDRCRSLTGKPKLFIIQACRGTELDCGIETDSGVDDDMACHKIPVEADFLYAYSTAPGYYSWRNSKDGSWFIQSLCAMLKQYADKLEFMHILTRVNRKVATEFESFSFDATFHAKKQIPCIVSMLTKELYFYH

Compound CC(=O)N[C@@H](CC(=O)O)C(=O)N[C@@H](CCC(=O)O)C(=O)N[C@H](C(=O)N[C@H](C=O)CC(=O)O)C(C)C [DEVD-CHO] has an IC50 of 2.35 nM.

Reference: patent publication US12595288B2 (priority 2020, dated 2026)
